The record followed here is PMC4585259 (Frontiers in Pharmacology, 2015).

Chains of the proteins cited; added tags and fusions are not shown.
UniProt P04775, whole entry: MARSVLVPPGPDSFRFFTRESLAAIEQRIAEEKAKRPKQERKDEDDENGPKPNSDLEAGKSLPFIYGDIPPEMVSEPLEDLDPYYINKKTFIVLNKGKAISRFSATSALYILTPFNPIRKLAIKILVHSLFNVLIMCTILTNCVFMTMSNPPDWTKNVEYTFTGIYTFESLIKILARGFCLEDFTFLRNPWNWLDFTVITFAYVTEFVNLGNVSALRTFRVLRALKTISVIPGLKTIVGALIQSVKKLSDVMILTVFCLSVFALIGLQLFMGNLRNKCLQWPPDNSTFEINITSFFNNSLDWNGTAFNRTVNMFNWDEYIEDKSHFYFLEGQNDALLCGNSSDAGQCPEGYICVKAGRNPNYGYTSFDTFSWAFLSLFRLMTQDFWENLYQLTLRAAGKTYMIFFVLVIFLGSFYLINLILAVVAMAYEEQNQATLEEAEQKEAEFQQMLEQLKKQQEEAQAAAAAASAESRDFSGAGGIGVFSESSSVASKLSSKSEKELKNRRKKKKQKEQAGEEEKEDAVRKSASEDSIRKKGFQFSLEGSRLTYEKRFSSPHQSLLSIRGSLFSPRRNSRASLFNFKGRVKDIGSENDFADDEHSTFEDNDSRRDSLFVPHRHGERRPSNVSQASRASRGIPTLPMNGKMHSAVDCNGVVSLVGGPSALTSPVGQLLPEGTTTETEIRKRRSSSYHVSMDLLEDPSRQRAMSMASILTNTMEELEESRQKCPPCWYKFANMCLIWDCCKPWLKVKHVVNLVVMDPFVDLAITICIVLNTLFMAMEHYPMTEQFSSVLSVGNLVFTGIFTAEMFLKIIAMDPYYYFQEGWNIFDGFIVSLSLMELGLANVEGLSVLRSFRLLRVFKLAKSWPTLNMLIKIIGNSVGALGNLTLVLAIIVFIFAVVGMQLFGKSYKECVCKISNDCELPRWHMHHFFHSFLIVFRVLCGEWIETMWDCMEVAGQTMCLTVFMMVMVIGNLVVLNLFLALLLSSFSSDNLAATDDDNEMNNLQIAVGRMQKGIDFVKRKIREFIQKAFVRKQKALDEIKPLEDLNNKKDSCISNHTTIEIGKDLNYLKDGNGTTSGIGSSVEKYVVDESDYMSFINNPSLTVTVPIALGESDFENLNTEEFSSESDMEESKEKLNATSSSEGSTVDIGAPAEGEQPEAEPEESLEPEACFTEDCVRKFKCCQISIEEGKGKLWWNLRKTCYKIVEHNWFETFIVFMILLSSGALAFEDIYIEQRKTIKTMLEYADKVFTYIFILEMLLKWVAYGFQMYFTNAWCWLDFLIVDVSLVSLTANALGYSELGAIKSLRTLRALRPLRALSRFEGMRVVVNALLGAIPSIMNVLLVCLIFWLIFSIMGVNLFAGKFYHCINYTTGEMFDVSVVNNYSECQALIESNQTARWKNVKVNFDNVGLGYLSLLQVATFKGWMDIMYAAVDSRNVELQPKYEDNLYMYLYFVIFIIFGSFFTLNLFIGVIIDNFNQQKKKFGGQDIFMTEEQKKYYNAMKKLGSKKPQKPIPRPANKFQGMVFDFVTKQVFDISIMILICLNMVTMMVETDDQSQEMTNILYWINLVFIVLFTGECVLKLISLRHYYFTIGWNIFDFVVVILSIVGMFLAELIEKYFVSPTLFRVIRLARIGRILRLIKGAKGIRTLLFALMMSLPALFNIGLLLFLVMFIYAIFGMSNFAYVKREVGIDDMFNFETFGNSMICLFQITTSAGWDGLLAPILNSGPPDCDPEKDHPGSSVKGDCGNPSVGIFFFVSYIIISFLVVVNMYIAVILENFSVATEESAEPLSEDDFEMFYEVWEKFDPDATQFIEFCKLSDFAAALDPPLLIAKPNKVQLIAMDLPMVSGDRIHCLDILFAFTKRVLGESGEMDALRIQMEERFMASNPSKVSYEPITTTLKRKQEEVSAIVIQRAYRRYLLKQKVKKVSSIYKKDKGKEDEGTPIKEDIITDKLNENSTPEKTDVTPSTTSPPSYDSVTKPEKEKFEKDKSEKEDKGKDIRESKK

The structures appear in SMILES notation.

In the assay the target is rNav1.2 sodium channels (Rattus norvegicus, UniProt P04775). Description: QPatch automated patch clamp, inhibition of sodium currents evoked by 5 Hz trains at three extracellular pH values. The conditions noted are these: for τoffset / τonset: concentration (lidocaine 300 μM, memantine 30 μM). (The patch-clamp technique gives a direct electrical read-out from membranes.)

For `Nc1nc2ccc(OC(F)(F)F)cc2s1` [riluzole], the Kd by setting is: (Apparent Affinity, pH=6.0, cc 30 mM) 97.9 µM; (Apparent Affinity, pH=7.3, cc 30 mM) 80.3 µM; (Apparent Affinity, pH=8.6, cc 30 mM) 68.4 µM; (apparent affinity, pH 6.0, single concentration (lidocaine 300 μM, memantine 30 μM), geometric mean of 5) 97.9 µM; (apparent affinity, pH 7.3, single concentration (lidocaine 300 μM, memantine 30 μM), geometric mean of 5) 80.3 µM; (apparent affinity, pH 8.6, single concentration (lidocaine 300 μM, memantine 30 μM), geometric mean of 5) 68.4 µM.

Take `CN[C@H]1CC[C@@H](c2ccc(Cl)c(Cl)c2)c2ccccc21` [sertraline]: the “class of pH-dependence pattern (cluster analysis)” value (Ward's method on 18 variables of affinity, reversibility, onset) is recorded as “Class C”. For the same compound, where the note is “neutral-to-alkalic solution exchange, in words”, the alkalization-induced recovery entry is reported as “prominent alkalization-induced recovery”. Where the note is “pH 6.0, 7.3 and 8.6”, the “reversibility at all three pH values” was “below 0.6”. The “Ratio Reversibility” value was 2.494 (pH 6.0/7.3, cc 30 mM); 7.539 (pH 6.0/8.6, cc 30 mM); 3.023 (pH 7.3/8.6, cc 30 mM). Besides, the “Ratio Tau Offset” value by setting is: (pH 6.0/7.3, cc 30 mM) 1.158; (pH 6.0/8.6, cc 30 mM) 0.947; (pH 7.3/8.6, cc 30 mM) 0.818. In addition, the “Ratio Tau Onset” value came to 0.915 (pH 6.0/7.3, cc 30 mM); 1.117 (pH 6.0/8.6, cc 30 mM); 1.221 (pH 7.3/8.6, cc 30 mM). Further, the “log Ratio App Aff” value by setting is: (pH 6.0/7.3, cc 30 mM) 0.351; (pH 6.0/8.6, cc 30 mM) 0.920; (pH 7.3/8.6, cc 30 mM) 0.569. Moreover, the τoffset is, setting by setting: (pH 6.0) 32.20 s; (pH 7.3) 27.80 s; (pH 8.6) 34.00 s. The τonset reads like this: (pH 6.0) 17.20 s; (pH 7.3) 18.80 s; (pH 8.6) 15.40 s. The Reversibility runs as follows: (pH=6.0, cc 30 mM) 0.57; (pH=7.3, cc 30 mM) 0.23; (pH=8.6, cc 30 mM) 0.0755.
